PTHR1 agonist – PTHR1 (human) receptor agonism. Q03431. HEK293 GP2 PTHR1 cells, GloSensor cAMP luminescence, 1 h. Potency, µM (titrated, usually from 115 µM), hits mostly activators. 410,000 tested, 0.075% active. AID 743266; further: nearly all actives have a fitted effect of over 55% in size
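HEK-293-derived GP2 cells expressing PTHR1 and a GloSensor cAMP reporter, 3,000/well, plated overnight, given luciferin plus IBMX (each 0.5 mM as added) for 1 h at 37 °C, then compound for 1 h at 37 °C. Luminescence was read after 15 min at room temperature.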
GLP1R ag – activates the human GLP-1 receptor. P43220. HEK293 GLP-1R CRE-luciferase, luminescence, 4-6 h; cells express a hypersensitive GLP-1R form. Potency, µM (highest dose often 45.6 µM), usual class: activators. 380,000 tested, 0.007% active. AID 624172
miR-21 reporter – miR-21 reporter, rising signal | 340,000 tested, under 10 active | AID 2288 | HeLa miR-21 FLuc reporter, luciferase, 48 h | Potency, µM (titrated, usually from 38.3 µM); active = well fitted rising curve with a large enough effect; inconclusive = small, poorly fitted or top-dose-only effect; inactive = no such curve, though single readings can be large or run the other way;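 further: miR-21 action dims this reporter so a rising signal means less miR-21 action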
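Luminescence from a firefly luciferase reporter carrying a miR-21 binding site downstream, stably expressed under a CMV promoter in HeLa cells that make miR-21 endogenously, reports miRNA modulation after 48 h compound exposure up to approximately 40uM final.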
Pin1 inh – inhibitors of human Pin1. Pin1 FP peptide displacement, HiFluor488, 10 min. Potency, µM (titrated, usually from 115 µM), most hits filed as inhibitors. 390,000 tested, 0.009% active. AID 504891; active means well fitted inhibition curve with a large enough effect in the polarisation, with a control signal flat, not every such curve was filed as active; inconclusive means small, poorly fitted or top-dose-only effect, or effect the other way, or a change in a side signal; inactive means no such curve, though single readings can be large or run the other way; the % refers to the polarisation
HEK293 tox – cytotoxic in the GLP-1 receptor inverse agonist counter-screen | HEK293 cAMP-luciferase reporter cells, luminescence, 24 h | Potency, µM (titrated, usually from 38.3 µM), most hits filed as inhibitors | 410,000 tested, 0.13% active | AID 624418;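 further: loss of luciferase light is scored as toxicity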
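Luminescence readout: signal drop marks cytotoxicity. Plated cells grew 12 h at 37 °C, 5% CO2, received 23 nL compound for 24 h, then got luciferase reagent, read after 12 min at RT.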
GLP1R inv ag – acts as inverse agonist at human GLP-1 receptor | Potency, µM (doses to about 38.3 µM), most hits filed as inhibitors | P43220 | 410,000 tested, 1.6% active | HEK293 GLP-1R CRE-luciferase, luminescence, 24 h; GLP-1R form is constitutively active | AID 624417; further: nearly all actives have a fitted effect of over 55% in size
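Using stably transfected HEK293 (constitutively active GLP-1R, cAMP-luciferase reporter), compounds were incubated 24 hr and luciferase measured by luminescence.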
Large screens that a line does not name were inactive. Shown are actives, neighbours in structure and some others; about 1.7% of the full set was active somewhere. Unless noted, the call rests on the fitted dose curve; in most records, active means well fitted curve in the direction sought with a large enough effect; inconclusive means small, poorly fitted or top-dose-only effect, or another doubt; inactive means no such curve, though single readings can be large; an effect the other way counts as inactive or inconclusive.

COc1ccc(OC)c(NC(=O)CN(c2ccc(C)cc2)S(=O)(=O)c2c(C)noc2C)c1	GLP1R inv ag 10µM
COc1ccc(OC)c(NC(=O)CN(c2ccc(C(C)C)cc2)S(=O)(=O)c2c(C)noc2C)c1	GLP1R inv ag inconclusive
COc1cccc(CNC(=O)CN(c2cc(C)cc(C)c2)S(=O)(=O)c2c(C)noc2C)c1	GLP1R inv ag 10µM
C[C@@H](Nc1nc(Cl)nc2nc[nH]c12)c1ccccc1	none (no result: PTHR1 agonist, GLP1R ag, miR-21 reporter, HEK293 tox, GLP1R inv ag)
O=C(NCc1ccc(F)cc1)C1CCN(S(=O)(=O)c2ccc3c(c2)CCCN3C(=O)C2CCC2)CC1	none (no result: GLP1R ag)
Cc1ccc(OCC(=O)N2CC3(C)CC2CC(C)(C)C3)cc1 (stereo not given)	GLP1R inv ag 10µM
Cc1ccc(C(=O)Nc2ccccc2C(=O)N2CC3(C)CC2CC(C)(C)C3)cc1 (stereo not given)	GLP1R inv ag 10µM
COc1ccc(CC(=O)N2CC3(C)CC2CC(C)(C)C3)cc1 (stereo not given)	GLP1R inv ag 11.2µM
CC1(C)CC2CC(C)(CN2C(=O)Cc2ccccc2)C1 (stereo not given)	GLP1R inv ag inconclusive
Cc1cccc(C)c1OCC(=O)N1CC2(C)CC1CC(C)(C)C2 (stereo not given)	GLP1R inv ag inconclusive
O=C(CSc1ncc(-c2ccccc2)[nH]1)Nc1cccc(Br)c1	Pin1 inh inconclusive, GLP1R inv ag inconclusive (no result: GLP1R ag)
O=C(Nc1cccc(C(F)(F)F)c1)C1CCN(S(=O)(=O)c2cccs2)CC1	GLP1R inv ag inconclusive (no result: GLP1R ag)
COc1ccc(OC)c(S(=O)(=O)N2CCC(C(=O)Nc3cccc(C(F)(F)F)c3)CC2)c1	HEK293 tox inconclusive, GLP1R inv ag 10µM
Cc1ccc(NC(=O)C2CCN(S(=O)(=O)c3cccs3)CC2)cc1C	GLP1R inv ag 8.91µM
Cc1ccc2c(n1)Oc1ccc(C(C)C(=O)OCC(=O)N(C)C)cc1C2 (stereo not given)	none (no result: PTHR1 agonist, miR-21 reporter, Pin1 inh, HEK293 tox, GLP1R inv ag)
O=C(NCCc1nc2ccccc2n1CCO)C1CCCCC1	none (no result: PTHR1 agonist, GLP1R ag, miR-21 reporter, HEK293 tox, GLP1R inv ag)
Cn1c(-c2c(N)n(C3CCCC3)c3nc4ccccc4nc23)nc2ccccc21	Pin1 inh inconclusive, GLP1R inv ag 3.98µM
O=C(Cn1c(=O)n(Cc2ccc(F)cc2)c(=O)c2sc3ccccc3c21)NCc1ccccc1Cl	none
COc1cc2c(cc1OC)C(COc1ccccc1OC)N(C(=O)COc1ccc(Cl)cc1)CC2 (stereo not given)	GLP1R inv ag inconclusive
CCc1nc2c(OCc3ccc(Cl)cc3)cccn2c1N(C)C(=O)c1ccco1	GLP1R inv ag 10µM (no result: miR-21 reporter, Pin1 inh)
CCc1nc2c(OCc3ccc(F)cc3)cccn2c1N(C)C(=O)c1ccco1	none (no result: miR-21 reporter, Pin1 inh)
COc1ccc(-n2cc(C(=O)N(C)c3cc(C)ccc3OC)c3ccccc3c2=O)cc1	GLP1R inv ag inconclusive (no result: GLP1R ag)
O=S(=O)(Nc1ccc(Cc2ccncc2)cc1)c1ccc(Cl)c(Cl)c1	HEK293 tox 10µM
C/C(=C(/CCO)SS/C(CCO)=C(\C)N(C=O)Cc1cnc(C)nc1N)N(C=O)Cc1cnc(C)nc1N	none (no result: PTHR1 agonist, miR-21 reporter, Pin1 inh, HEK293 tox, GLP1R inv ag)
CC1=CC(C)(C)N(C(=O)c2ccccc2)c2ccc(C)cc21	GLP1R inv ag inconclusive
COc1ccc(C(=O)N2c3cc4c(cc3C(C)=CC2(C)C)OCO4)cc1	GLP1R inv ag 7.94µM
CCCN(CC(=O)Nc1ccccc1OC)C(=O)CC1CCCC1	GLP1R inv ag 8.91µM (no result: miR-21 reporter)
CCCN(CC(=O)Nc1ccccc1OC)C(=O)Cc1ccccc1F	none
CCCN(CC(=O)Nc1ccccc1OC)C(=O)c1cc(-c2ccccc2)nn1-c1ccccc1	GLP1R inv ag 10µM (no result: miR-21 reporter)
C=C1c2cccc(O)c2C(O)=C2C(=O)[C@@]3(O)C(O)=C(C(N)=O)C(=O)[C@@H](N(C)C)[C@@H]3[C@@H](O)[C@H]12	none (no result: PTHR1 agonist, miR-21 reporter, Pin1 inh, HEK293 tox, GLP1R inv ag)
COc1cccc(-c2nnc(SCC(=O)N3CC(C)CC(C)C3)o2)c1 (stereo not given)	GLP1R inv ag 11.2µM
COc1cc(-c2nnc(SCC(=O)N3c4ccccc4Sc4ccccc43)o2)cc(OC)c1OC	GLP1R inv ag 1.26µM

Screening results (PubChem)
